Data on 1 compound can be found in US20200399329A1, “ANTIMICROBIAL PEPTIDES” (priority 2015, published 2020).

In brackets after ≈: the same amount, converted by molar mass.

Common to all, as to format: cell-based, Escherichia coli
Test [1] deals with E. coli Sens. 25922. Here is the method:
(§1) In order to determine the MIC values of the peptides, growth and inhibition of various bacteria were monitored after treatment with the peptides of the invention (Table 6).
(§2) E. coli bacteria were cultured with or without OMN6 in increasing concentrations of 0.8-200 μM and with or without Fetal Bovine Serum 10% for 17-20 hours. The growth of the bacteria was continuously monitored via spectrophotometry at 600 nm. As bacterial growth progresses, OD600 nm values rise, and where the growth is inhibited OD600 nm values remain constant.
(§3) The experimental system and parameters described here were used to determine the MIC values of OMN2, OMN6, OMN7 and OMN11 on various bacteria strains (Table 7 and Table 8).

The test system of test [2] is E. coli CR BAA-2452. Here is the method: as §1, §2
E. coli NDM1 is a Carbapenem resistant strain of bacteria. The experimental system described above was used to determine the antimicrobial effect of OMN6 on this bacteria compared to the antibiotic drug Imipenem (IPM), a member of the Carbapenem family of antibiotics. The MIC value for IPM on sensitive E. coli is 4 μg/ml, in a MIC above 8 μg/ml the bacteria is considered resistant.
as §3

In test [3] the test system is E. coli CR BAA-2452. Here is the method:
(§4) In order to determine the Minimal Bactericidal Concentration (MBC) values of the peptides, colony formation of various bacteria strains was monitored and determined after treatment with the peptides of the invention. Multi-Drug Resistant A. baumannii bacteria were cultured with or without OMN6 in increasing concentrations, as is detailed in FIG. 6 and Example 6. Immediately afterwards, samples of each experimental group were diluted to 1×10^4 to 1×10^6 as necessary, and further, the samples were plated on appropriate medium-agar plates. All the plates were incubated at 37° C. for 24-48 hours. Colonies were counted and CFU/ml in the original sample, prior to plating, were calculated and determined. An example of the plates, after incubation, is presented in FIG. 7 where the plate on the left side of the image is the CTRL sample treated with DDW and in the right side of the image increasing concentrations of OMN6 are presented, as specified therein.
(§5) The experimental system and parameters described here were used to determine the MBC values of OMN2, OMN6, OMN7 and OMN11 on various bacteria strains with and without the supplementation of 10% FBS (Table 6 and Table 8).
This is another data set of the same source.

In test [4] the test system is E. coli Sens. 25922. The protocol: as §4, §5
This is another data set of the same source.

On to `CC[C@H](C)[C@H](NC(=O)CNC(=O)[C@H](CC(N)=O)NC(=O)[C@H](CCCNC(=N)N)NC(=O)[C@@H](NC(=O)[C@H](CC(N)=O)NC(=O)[C@H](CCCNC(=N)N)NC(=O)CNC(=O)[C@H](CCCCN)NC(=O)[C@H](CCSC)NC(=O)[C@H](CCC(=O)O)NC(=O)[C@@H](NC(=O)[C@H](CCCCN)NC(=O)[C@H](CCCCN)NC(=O)[C@H](Cc1ccccc1)NC(=O)[C@@H](NC(=O)[C@H](CCCCN)NC(=O)[C@H](Cc1c[nH]c2ccccc12)NC(=O)[C@H](CCCCN)NC(=O)[C@H](CS)NC(=O)[C@@H](N)CCSC)C(C)C)[C@@H](C)CC)[C@@H](C)CC)C(=O)N[C@H](C(=O)N[C@@H](CCCCN)C(=O)N[C@@H](C)C(=O)NCC(=O)N1CCC[C@H]1C(=O)N[C@@H](C)C(=O)N[C@H](C(=O)N[C@@H](C)C(=O)N[C@H](C(=O)N[C@@H](CC(C)C)C(=O)NCC(=O)N[C@@H](CCC(=O)O)C(=O)N[C@@H](C)C(=O)N[C@@H](CCCCN)C(=O)N[C@@H](C)C(=O)N[C@@H](CC(C)C)C(=O)N[C@@H](CS)C(N)=O)C(C)C)[C@@H](C)CC)C(C)C` [OMN2], for which the MIC amounted to 25 µM (≈ 104 µg/mL) with E. coli Sens. 25922 [1] and 20 µM (≈ 83.4 µg/mL) with E. coli CR BAA-2452 [2]. The MBC in the test with E. coli CR BAA-2452 [3] was found to be 20 µM (≈ 83.4 µg/mL); with E. coli Sens. 25922 [4], 25 µM (≈ 104 µg/mL).
